The target of this assay is TYK2 JH2 domain (Homo sapiens (Human), UniProt P29597). Kind of assay: TYK2 JH2 NanoBRET assay. Format: binding. The conditions noted are these: HEK293T cells, Table 19. The protocol: HEK293T cells were transfected with NanoLuc-TYK2 JH2 Fusion Vector (Promega, customized) using Trans-IT reagent (Mirus, #MIR2700) and incubated for overnight in 37° C. incubator. […] Add 85 µL of cell suspension into white, polypropylene, 96-well plates (Corning, #3600). 90 µL of cells were used for no tracer control samples. 5 µL of diluted NanoBRET K10 tracer (Promega, #CS1810C122) were added to cells to a final concentration of 0.5 µM. Test compounds were diluted into DMSO, and then phenol-free opti-MEM to 10X of final concentration. 10 µL of diluted compounds were added into each well. The cells were incubated with test compound and tracer for 2 hours. 3XNanoBRET® Nano-Glo® Substrate and Extracellular NanoLuc® Inhibitor mixture were prepared and 50 µL of the mixture were added into the wells and mixed. […] NanoBRET signal was determined by using the ratio of acceptor signal and donor signal.
(In general: In BRET a luciferase serves as donor, and the signal depends on an acceptor being close.)

By UniProt entry, the sequences of proteins in these tests, tags left out. Residues count along the entry.
UniProt P29597, 589-875: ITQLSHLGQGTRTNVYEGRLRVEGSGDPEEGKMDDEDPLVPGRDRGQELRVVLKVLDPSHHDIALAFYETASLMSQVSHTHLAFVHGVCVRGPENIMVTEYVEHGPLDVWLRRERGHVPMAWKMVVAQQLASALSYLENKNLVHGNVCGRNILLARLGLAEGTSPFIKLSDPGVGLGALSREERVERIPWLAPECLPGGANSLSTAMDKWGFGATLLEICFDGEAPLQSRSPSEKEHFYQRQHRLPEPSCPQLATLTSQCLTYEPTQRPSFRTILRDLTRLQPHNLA

Molecules are shown by their SMILES.

As a reminder, the IC50 is the concentration that gives 50% inhibition. The low end stands for inhibition by little substance, the high end for a need for much substance. As for `COc1c(Nc2cc(NC(=O)C3CC3)ncc2C(=O)C2CC2)cccc1-c1ncn(C)n1` [Compound 1C], the 50% inhibitory concentration (IC50) was under 5 nM.

The record behind these values is US20230295119A1, “SUBSTITUTED PYRIDINES FOR THE TREATMENT OF INFLAMMATORY DISEASES” (GOSSAMER BIO SERVICES, INC., priority 2020, published 2023).
